For one compound, Ki results are on record in ChEMBL document CHEMBL1165920, “Structural determinants for the inhibitory ligands of orotidine-5'-monophosphate decarboxylase” (Bioorg Med Chem, 2010).

This assay concerns the target T1, Uridine 5'-monophosphate synthase (Homo sapiens, UniProt P11172).
T1 sequence (P11172 whole entry): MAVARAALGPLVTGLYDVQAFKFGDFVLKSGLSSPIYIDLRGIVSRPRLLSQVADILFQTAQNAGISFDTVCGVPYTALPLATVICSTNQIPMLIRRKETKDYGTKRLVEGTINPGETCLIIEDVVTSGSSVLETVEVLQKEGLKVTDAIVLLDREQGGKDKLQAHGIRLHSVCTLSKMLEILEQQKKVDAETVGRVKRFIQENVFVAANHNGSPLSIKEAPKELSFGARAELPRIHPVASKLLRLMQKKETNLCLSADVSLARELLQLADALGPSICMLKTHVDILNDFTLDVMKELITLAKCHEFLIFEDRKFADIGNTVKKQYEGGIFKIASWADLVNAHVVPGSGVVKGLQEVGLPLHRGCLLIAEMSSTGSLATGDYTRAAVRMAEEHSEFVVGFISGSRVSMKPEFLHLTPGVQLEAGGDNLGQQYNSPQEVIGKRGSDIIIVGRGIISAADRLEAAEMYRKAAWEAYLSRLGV
The assay is described as follows: Inhibition of human uridine 5'-monophosphate synthase after overnight incubation at room temperature by UV spectroscopy.

As usually defined, the Ki is the equilibrium dissociation constant of an inhibitor or competing ligand from its target. In the case of `NC(=O)c1[nH]nc([C@@H]2O[C@H](COP(=O)(O)O)[C@@H](O)[C@H]2O)c1O`, the inhibitory constant (Ki) was 17 nM.
